{
  "source": "patent EP4692081A1",
  "about": "“PREPARATION METHOD FOR NAPHTHOISOXAZOLE COMPOUND” (priority 2023, dated 2024)",
  "assay": "Pharmacokinetic evaluation in beagle dogs",
  "type": "in vivo, Male beagle dogs",
  "settings": "Intragastric Administration (5 mg/kg), fed",
  "excerpt": "Male beagle dogs were selected as the experimental animals in this study. The LC/MS/MS method was employed to quantitatively determine the plasma drug concentrations at different time points after intravenous injection or intragastric administration of the test compound, aiming to evaluate the pharmacokinetic characteristics of the compound of the present disclosure in beagle dogs.\nBeagle dogs (male, 7 to 10 kg, Beijing Mars Biotechnology Co., Ltd.).\nA clear solution of the test compound was slowly injected intravenously into beagle dogs (fed) via the peripheral vein (vehicle: 5% DMSO/10% Solutol/85% H2O), or administered intragastrically to beagle dogs (fed). For intravenous administration, 0.5 mL of blood was collected from the peripheral vein at 0.083, 0.25, 0.5, 1, 2, 4, 6, 8, and 24 h after administration, placed in EDTA-2K anticoagulant tubes, and centrifuged at 3200 g for 10 minutes at 2 to 8°C to separate the supernatant. […] Plasma drug concentrations were determined by the LC-MS/MS method, and relevant pharmacokinetic parameters were calculated using Phoenix WinNonlin 6.3 pharmacokinetic software with non-compartmental model linear-log trapezoidal method.",
  "note": "Counter-ions that a name gives are not always drawn.",
  "data": [
    {"smiles": "O=C1CCC(c2noc3ccc4c(NC(=O)CN5CCN(C[C@H]6CC[C@H](n7cc(NC(=O)c8coc(-c9ccnc(NCC%10CC%10)c9)n8)c(C(F)F)n7)CC6)CC5)cccc4c23)C(=O)N1", "note": "(stereo partly shown) [Hydrochloride of Compound of Formula (I)]", "values": [
      {"measurement": "Bioavailability F", "result": 72.6, "unit": "%"}
    ]}
  ]
}
